Earlier results on two substances are cited in patent publication US20030199496A1, “Pharmaceutical compositions containing alpha3beta4 nicotinic receptor antagonists and methods of their use” (priority 2002, published 2003).

By UniProt entry, the sequences of proteins in these tests, tags left out.
UniProt P35372, whole entry: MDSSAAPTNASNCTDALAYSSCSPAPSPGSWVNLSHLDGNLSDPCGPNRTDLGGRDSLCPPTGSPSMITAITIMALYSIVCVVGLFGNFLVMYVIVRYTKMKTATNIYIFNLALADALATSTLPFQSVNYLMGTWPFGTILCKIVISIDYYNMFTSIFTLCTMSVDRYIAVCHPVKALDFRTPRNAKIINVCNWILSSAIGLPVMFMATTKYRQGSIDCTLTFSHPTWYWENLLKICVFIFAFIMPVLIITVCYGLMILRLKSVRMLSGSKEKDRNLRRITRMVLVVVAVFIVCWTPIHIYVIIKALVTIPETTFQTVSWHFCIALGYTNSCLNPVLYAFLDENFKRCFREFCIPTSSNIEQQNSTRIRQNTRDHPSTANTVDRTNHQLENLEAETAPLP

One data set has as its target mu-opioid receptors (Homo sapiens, UniProt P35372). The settings on record: (−)- versus (+)-enantiomer.

Take (−)-18-methoxycoronaridine: the “fold lesser affinity to bind mu opioid receptor than the (+)-enantiomer” value on mu-opioid receptors is reported as 10 fold.
For the substance ibogaine, the “neurotoxicity, especially on Purkinje nerve cells” value in the data set on Purkinje nerve cells (at certain doses) was “neurotoxic”. Also, the tremors result in the data set on Purkinje nerve cells (human and animal subjects) is reported as “cause tremors”.
